Consider two compounds from patent US6420120B1, “Use of a polypeptide as cell receptor for adenoviruses” (priority 1997, dated 2002).

This data set has as its system HeLa cells. Put plainly: Cytotoxicity of the peptides on HeLa cells. It counts as cell-based, human. How it is done:
The peptides FN20 and MH20 are tested with respect to the attachment of the reporter adenovirus Ad5Luc3 to HeLa cells cultured in vitro. The test is carried out in part at 0° C., a temperature which allows the attachment of the viruses to the surface of the permissive cells but, on the other hand, blocks the entry of the viruses and the recycling of the receptors. Ad5Luc3 (MOI 0.16 pfu/10^5 cells) is previously incubated with increasing quantities of peptides (0.01 to 500 nM) at room temperature for 2 hours and the mixture is then added to a cell culture placed on ice. After 1 h at 0° C., the nonadsorbed viruses and the peptides are removed by washing and the culture is continued for 18 h at 37° C. after adding a preheated medium. The cellular lysates are prepared in a conventional manner and the luciferase activity expressed in RLU (for Relative Light Units) is determined (Promega substrate, Madison, Wis.; Lumat LB-9501 luminometer, Brethold Bioanalytical, Wildbad, Germany).

On to `CC[C@H](C)[C@H](NC(=O)[C@H](Cc1c[nH]cn1)NC(=O)[C@@H](N)CCCNC(=N)N)C(=O)N[C@@H](CC(C)C)C(=O)N[C@@H](Cc1c[nH]c2ccccc12)C(=O)N[C@H](C(=O)N1CCC[C@H]1C(=O)N[C@@H](C)C(=O)N[C@@H](CC(N)=O)C(=O)N[C@H](C(=O)N1CCC[C@H]1C(=O)N[C@@H](C)C(=O)N[C@@H](CCSC)C(=O)NCC(=O)N[C@@H](Cc1ccc(O)cc1)C(=O)N[C@@H](CC(C)C)C(=O)N[C@@H](C)C(=O)N[C@@H](CCCNC(=N)N)C(=O)N[C@H](C(=O)N[C@@H](CO)C(=O)O)C(C)C)[C@@H](C)O)[C@@H](C)O` [FN20], for which the cytotoxicity result was “no apparent cytotoxicity”.

Take `CC[C@H](C)[C@H](NC(=O)[C@H](C)NC(=O)[C@@H](N)CCCNC(=N)N)C(=O)N[C@H](C(=O)NCC(=O)N[C@@H](Cc1ccccc1)C(=O)N[C@@H](CCCNC(=N)N)C(=O)N[C@H](C(=O)N[C@@H](CCC(N)=O)C(=O)N[C@@H](Cc1c[nH]c2ccccc12)C(=O)N[C@@H](CC(C)C)C(=O)N[C@@H](CCCNC(=N)N)C(=O)N[C@@H](CCCNC(=N)N)C(=O)N[C@@H](Cc1ccc(O)cc1)C(=O)N[C@@H](Cc1ccccc1)C(=O)N[C@H](C(=O)N[C@@H](CC(N)=O)C(=O)NCC(=O)N[C@@H](CO)C(=O)N[C@@H](CCCNC(=N)N)C(=O)O)C(C)C)C(C)C)C(C)C` [MH20]: where the note is “50 μM peptide”, the cytotoxic effect entry is recorded as “no cytotoxic effect”.
